Assay results as given in PMC9092470, “Understanding p300-transcription factor interactions using sequence variation and hybridization†” (RSC Chemical Biology, 2022).

Sequences of proteins named here, by UniProt entry; tags and fusion partners are left off. Residues count along the entry.
UniProt Q09472, 330-420: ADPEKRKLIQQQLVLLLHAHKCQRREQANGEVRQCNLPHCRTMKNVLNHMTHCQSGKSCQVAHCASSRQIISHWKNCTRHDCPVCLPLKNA

Columns and labels:
[1] = target: T1, CITED2224-259 /p300 complex (Homo sapiens, UniProt Q09472); experiment: Competition ITC: HIF-1α786-826 titrated to preformed CITED2224-259/p300 complex; type: binding; conditions: titrated to CITED2224-259/p300 complex, treat with caution
T1 construct: GST (N, cleaved yes); made in house; host or cells: p300: E. coli BL21 pLysS (pGEX-4T1-p300); CITED2 peptide: chemical synthesis
Procedure: Figure S7Apparent KD fits for the competition ITC experiment using a competition interaction model. p300/ligand complexes were prepared by titrating the appropriate ligand first to p300 in the cell using 3-5 µM protein concentration, the titration stopped when it reached close to […]
(Table S5) Then it was titrated with the competitor ligand using 30-60 µM concentration in the syringe, 5 or 10 uL injections with 180-240 s spacing. Background titrations were performed without p300 in the cell and subtracted from the measurements. Apparent KD,app and ΔH app values data were fitted to a competition model (Fig. S17) in SEDPHAT. Error bars represent the estimated integration errors.
(1 picture or pasted object on this page, not shown here) […]
(§1) instrument using 3-5 µM protein in the cell and 40-60 µM ligand in the syringe at 35°C, using 5 µl injections and 180 s spacing between injections, for 40 injections. […] Data were analysed using NITPIC3 and fitted using SEDPHAT4 to a single binding site model (fixed 1:1 stoichiometry), with baseline and incompetent protein fraction as adjustable parameters. 68 % confidence intervals for the fitted values were determined using the automatic confidence interval search implemented in SEDPHAT. […]

[2] = target: T2, p300 (CH1 domain, residues 330–420) (Homo sapiens, UniProt Q09472); experiment: ITC of expressed HIF-1α, CITED2 and CITIF peptides binding to p300; conditions: conditions as Fig. S6 (40 mM sodium phosphate, pH 7.5, 100 mM NaCl, 1 mM DTT, 35°C)
T2 construct: GST (N, cleaved yes); made in house; host or cells: E. coli BL21 pLysS (pGEX-4T1-p300)
Procedure: We hypothesized that it would be possible to enhance the affinity of HIF-1α for p300 by hybridising key regions of both CITED2 and HIF-1α (see later). We first measured the affinity of the parent peptides. A particular difficulty in comparing these peptide sequences is the different length used in different studies.[28,33,35,36] […]
data and fitted thermogram (lower) (40 mM sodium phosphate, pH 7.5 100 mM NaCl, 1 mM DTT buffer using 5 µM protein in the cell and 60 µM ligand in the syringe at 35°C); (b) Thermodynamic signatures for each interaction. […]
Isothermal titration calorimetry
Prior to ITC measurement p300 CH1 was dialysed or run on S75 column in the buffer used for titration, and the same buffer was used to dissolve the pure peptides. Experiments with […]
as §1

[3] = target: T2, p300 (CH1 domain, residues 330–420); experiment: ITC of chemically synthesized HIF-1α, CITED2 and CITIF peptides binding to p300; conditions: 35 °C, 40 mM sodium phosphate, pH 7.5, 100 mM NaCl, 1 mM DTT, 5 μM protein in cell, 60 μM ligand in syringe
Procedure: Raw ITC (upper) data and fitted thermogram (lower) (40 mM sodium phosphate, pH 7.5 100 mM NaCl, 1 mM DTT buffer using 5 μM protein in the cell and 60 μM ligand in the syringe at 35 °C) error bars represent the estimated integration errors; (b) Thermodynamic signatures for each interaction.
Figure S8 (a) Sequences of the truncated CITED2 peptides and isothermal titration […]
µM peptide in the syringe. All measurements were carried out 40 mM sodium phosphate, pH 7.5 100 mM NaCl, 1 mM DTT buffer at 35°C. Error bars represent the estimated integration […]
Table S2 Thermodynamic parameters for shortened CITED2 sequences. 68% confidence intervals for the fitting are shown in brackets. Data fitted to a single binding site model, fixed 1:1 stoichiometry with incompetent protein fraction as an adjustable parameter. […]
Isothermal titration calorimetry […]
as §1

[4] = 68% confidence interval in brackets

## CC[C@H](C)[C@H](NC(=O)[C@@H]1CCCN1C(=O)[C@H](C)NC(=O)[C@H](CC(N)=O)NC(=O)[C@@H](NC(=O)[C@H](CCC(=O)O)NC(=O)[C@H](CS)NC(=O)[C@H](CC(=O)O)NC(=O)[C@H](Cc1ccc(O)cc1)NC(=O)[C@H](CO)NC(=O)[C@@H](NC(=O)[C@H](CC(C)C)NC(=O)[C@H](CCC(N)=O)NC(=O)[C@@H]1CCCN1C(=O)[C@H](CC(C)C)NC(=O)CNC(=O)[C@H](CO)NC(=O)[C@H](CCC(=O)O)NC(=O)[C@H](CC(=O)O)NC(=O)[C@H](CCSC)NC(=O)[C@H](CO)NC(C)=O)[C@@H](C)O)C(C)C)C(=O)N[C@@H](CCC(N)=O)C(=O)NCC(=O)N[C@@H](CO)C(=O)N[C@@H](CCCNC(=N)N)C(=O)N[C@@H](CC(N)=O)C(=O)N[C@@H](CC(C)C)C(=O)N[C@@H](CC(C)C)C(=O)N[C@@H](CCC(N)=O)C(=O)NCC(=O)N[C@@H](CCC(=O)O)C(=O)N[C@@H](CCC(=O)O)C(=O)N[C@@H](CC(C)C)C(=O)N[C@@H](CC(C)C)C(=O)N[C@@H](CCCNC(=N)N)C(=O)N[C@@H](C)C(=O)N[C@@H](CC(C)C)C(=O)N[C@@H](CC(=O)O)C(=O)N[C@@H](CCC(N)=O)C(=O)N[C@H](C(=O)N[C@@H](CC(N)=O)C(N)=O)C(C)C [HIF-1α786–826]
[1]
  ΔHapp, HIF-1α: -22.3 kcal/mol
  ΔSapp, HIF-1α: -38.8 cal/mol/K
[2]
  ΔS, expressed peptides: −73.2 cal mol^−1 K^−1
[2]; [4]
  ΔH, expressed peptides: -32.7 kcal/mol
[3]
  ΔS, synthetic peptides: −50 cal mol^−1 K^−1
[3]; [4]
  ΔH, synthetic peptides: -25.8 kcal/mol
